Source: US20250304644A1, “PEPTIDES TRIPLE AGONISTS OF GIP, GLP-1 AND GLP-2” (BAINAN BIOTECH APS, priority 2021, published 2025)

Sequences of proteins named here, by UniProt entry; tags and fusion partners are left off. A change or cut given only in a name is not applied to a line headed by its entry.
UniProt P43220: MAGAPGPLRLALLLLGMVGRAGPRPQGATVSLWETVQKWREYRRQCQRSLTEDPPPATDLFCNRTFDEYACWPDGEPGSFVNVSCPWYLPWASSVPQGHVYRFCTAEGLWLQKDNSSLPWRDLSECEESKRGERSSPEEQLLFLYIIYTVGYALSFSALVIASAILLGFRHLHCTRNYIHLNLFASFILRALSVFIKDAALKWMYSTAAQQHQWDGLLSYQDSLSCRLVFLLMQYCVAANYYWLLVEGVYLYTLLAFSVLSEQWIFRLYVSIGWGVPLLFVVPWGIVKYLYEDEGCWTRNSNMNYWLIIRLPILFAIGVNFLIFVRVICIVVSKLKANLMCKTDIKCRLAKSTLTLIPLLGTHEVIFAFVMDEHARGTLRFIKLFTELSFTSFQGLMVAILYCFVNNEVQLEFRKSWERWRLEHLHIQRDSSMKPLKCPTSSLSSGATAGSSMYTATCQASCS

T1: human SNAP-tagged GLP-2R (human, UniProt O95838 1-553, SNAP tag labeled with Tag-Lite SNAP-Lumi4-Tb)
T1 sequence (looked up): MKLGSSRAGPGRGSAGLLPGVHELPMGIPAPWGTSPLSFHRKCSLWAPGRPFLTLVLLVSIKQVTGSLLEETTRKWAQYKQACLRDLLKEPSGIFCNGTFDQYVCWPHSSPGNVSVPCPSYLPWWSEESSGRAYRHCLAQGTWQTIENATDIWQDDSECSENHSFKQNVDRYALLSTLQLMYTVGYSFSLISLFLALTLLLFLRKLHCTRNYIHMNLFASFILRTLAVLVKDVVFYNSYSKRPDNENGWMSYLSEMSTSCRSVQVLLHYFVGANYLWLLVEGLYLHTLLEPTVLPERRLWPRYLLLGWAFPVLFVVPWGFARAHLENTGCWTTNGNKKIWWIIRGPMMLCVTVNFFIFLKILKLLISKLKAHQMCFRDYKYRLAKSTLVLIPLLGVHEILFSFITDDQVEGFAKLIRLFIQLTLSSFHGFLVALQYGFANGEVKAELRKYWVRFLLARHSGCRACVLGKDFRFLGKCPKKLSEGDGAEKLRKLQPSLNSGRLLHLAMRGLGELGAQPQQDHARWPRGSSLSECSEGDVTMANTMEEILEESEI

T2: Human N-terminally SNAP-tagged GIPR (human, UniProt P48546 22-466, SNAP tag labeled with Tag-Lite SNAP-Lumi4-Tb)
T2 sequence (looked up): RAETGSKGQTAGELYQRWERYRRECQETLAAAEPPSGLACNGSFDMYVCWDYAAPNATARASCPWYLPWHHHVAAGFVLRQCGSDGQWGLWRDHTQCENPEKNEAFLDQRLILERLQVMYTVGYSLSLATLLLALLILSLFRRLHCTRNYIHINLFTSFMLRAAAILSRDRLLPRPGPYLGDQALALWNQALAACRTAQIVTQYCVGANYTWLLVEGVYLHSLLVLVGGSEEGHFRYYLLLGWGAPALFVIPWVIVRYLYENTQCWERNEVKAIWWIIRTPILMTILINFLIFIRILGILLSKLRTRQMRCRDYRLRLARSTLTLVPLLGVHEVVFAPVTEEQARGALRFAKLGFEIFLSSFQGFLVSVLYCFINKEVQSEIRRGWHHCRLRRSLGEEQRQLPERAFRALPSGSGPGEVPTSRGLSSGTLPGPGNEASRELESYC

T3: human GLP-2R (glucagon-like peptide-2 receptor) (human, UniProt O95838 1-553)
T3 sequence (looked up): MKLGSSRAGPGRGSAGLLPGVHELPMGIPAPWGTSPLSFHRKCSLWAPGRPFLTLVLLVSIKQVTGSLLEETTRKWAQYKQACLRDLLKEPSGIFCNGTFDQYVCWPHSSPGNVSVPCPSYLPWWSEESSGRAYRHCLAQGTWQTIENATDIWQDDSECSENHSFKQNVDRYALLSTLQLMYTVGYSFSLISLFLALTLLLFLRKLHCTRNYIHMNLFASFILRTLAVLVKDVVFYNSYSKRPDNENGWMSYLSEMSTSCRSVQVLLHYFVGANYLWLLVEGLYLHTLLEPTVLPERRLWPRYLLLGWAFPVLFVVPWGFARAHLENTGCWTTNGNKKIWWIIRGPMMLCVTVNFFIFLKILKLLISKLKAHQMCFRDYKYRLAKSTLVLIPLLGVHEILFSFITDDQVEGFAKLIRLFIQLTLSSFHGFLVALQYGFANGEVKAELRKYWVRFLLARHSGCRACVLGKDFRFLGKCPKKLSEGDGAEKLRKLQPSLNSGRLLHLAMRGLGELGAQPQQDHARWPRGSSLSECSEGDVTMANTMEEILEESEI

T4: human GIPR (glucose-dependent insulinotropic polypeptide receptor) (human, UniProt P48546 22-466)
T4 sequence (looked up): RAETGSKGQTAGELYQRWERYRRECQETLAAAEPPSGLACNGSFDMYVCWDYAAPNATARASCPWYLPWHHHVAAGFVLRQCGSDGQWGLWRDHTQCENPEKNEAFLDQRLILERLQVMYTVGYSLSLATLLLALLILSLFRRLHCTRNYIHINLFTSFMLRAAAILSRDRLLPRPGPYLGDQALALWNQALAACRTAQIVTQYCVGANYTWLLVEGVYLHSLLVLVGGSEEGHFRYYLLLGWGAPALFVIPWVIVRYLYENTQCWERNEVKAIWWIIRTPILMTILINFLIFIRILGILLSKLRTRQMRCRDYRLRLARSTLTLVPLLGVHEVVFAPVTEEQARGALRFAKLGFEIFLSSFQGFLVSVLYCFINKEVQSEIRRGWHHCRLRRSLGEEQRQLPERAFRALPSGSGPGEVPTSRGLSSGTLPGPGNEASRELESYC


Columns and labels:
Experiment in all cases: cell-based or functional assay
human SNAP-tagged GLP-2R = target: T1, human SNAP-tagged GLP-2R
[1] = target: T2, Human N-terminally SNAP-tagged GIPR
human SNAP-tagged GLP-1R = human SNAP-tagged GLP-1R (human, UniProt P43220 24-463, SNAP tag labeled with Tag-Lite SNAP-Lumi4-Tb)
[2] = target: human GLP-1R (glucagon-like peptide-1 receptor) (human, UniProt P43220 24-463)
[3] = target: T3, human GLP-2R (glucagon-like peptide-2 …)
[4] = target: T4, human GIPR (glucose-dependent …)

Relative hGLP-2R internalization (%) (human SNAP-tagged GLP-2R) | Relative hGIPR internalization (%) [1] [%] | Relative hGLP-1R internalization (%) (human SNAP-tagged GLP-1R) | EC50 (nM) GLP-1R [2] [nM] | logEC50 GLP-1R [2] | EC50 (nM) GLP-2R [3] [nM] | EC50 (nM) GIPR [4] [nM] | pEC50 GIPR [4] | logEC50 GLP-2R [3] | Binder
46.8 | 57 | 8.6 | 0.5 | 9.3 | 1.4 | 0.056 | 10.3 |  | HADGTFISDYSTILDKLAARDFINWLIQTKGKKOH (K16 acylated, K-(2xAEEA-γGlu-C18-diacid); C-terminus -OH) [Compound 30]
13.2 | 43 | 7.7 | 3.6 | 8.4 | 66.1 | 0.141 | 9.9 | 7.2 | HADGTFISDYSTILDNLAARDFINWLIQTKGKKOH (K33 (C-terminal residue) acylated, K-(2xAEEA-γGlu-C18-diacid); C-terminus -OH) [Compound 33]
